Laboratory results from PubChem BioAssay AID504766 (The Scripps Research Institute Molecular Screening Center, 2011).
The list shows a part of the results, in another mix than the full data. Activity calls are given as the source filed them.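 How the source made its calls: active means inhibition above the mean over all tested compounds plus 3 SD (cut at about 4.2% in these data); inactive means the rest.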

Chains of the proteins cited; added tags and fusions are not shown. Lines headed by an entry give the natural chain unless they say otherwise; changes in a name come on top.
UniProt P51843: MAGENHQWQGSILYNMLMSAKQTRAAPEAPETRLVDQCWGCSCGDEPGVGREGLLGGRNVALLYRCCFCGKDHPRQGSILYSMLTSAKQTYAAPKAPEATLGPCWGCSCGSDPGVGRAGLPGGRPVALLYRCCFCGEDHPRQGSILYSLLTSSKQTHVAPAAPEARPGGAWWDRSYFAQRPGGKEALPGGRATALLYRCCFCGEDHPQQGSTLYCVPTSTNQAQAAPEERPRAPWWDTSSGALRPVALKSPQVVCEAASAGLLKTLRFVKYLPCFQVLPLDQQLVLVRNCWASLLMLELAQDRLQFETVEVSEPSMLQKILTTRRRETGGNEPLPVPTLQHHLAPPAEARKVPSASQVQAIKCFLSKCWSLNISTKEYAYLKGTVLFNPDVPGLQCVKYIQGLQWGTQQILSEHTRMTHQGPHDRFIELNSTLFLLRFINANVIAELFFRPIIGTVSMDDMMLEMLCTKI

Target: Nuclear receptor subfamily 0 group B member 1 (Homo sapiens) (UniProt P51843)
Assay: DAX1 (NR0B1) inhibitors, primary screen, cell-based, HEK293, Gal4-DAX1, luciferase luminescence (AID 504766);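 further: 0% = DAX1-transfected cells with DMSO and 100% = empty-vector control cells with DMSO; inhibition shows as a rise in luminescence from relieved DAX1 repression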
Conditions: HEK293 Gal4-DAX1 luciferase reporter, at 6.75 µM, hits give high values

Q: For CCOC(=O)Nc1cccc([As](=O)(O)O)c1, which inhibition is on record?
A: The inhibition was inactive: -0.02%.

Q: For O=[N+]([O-])c1ccc(Nc2ccc(Oc3ccc([N+](=O)[O-])cc3[N+](=O)[O-])cc2)c([N+](=O)[O-])c1, which inhibition is on record?
A: The inhibition was inactive: 2.26%.

Q: Which inhibition does the source give for Cc1cc(SC(NC=O)C(Cl)(Cl)Cl)ncn1 (stereo not given) here?
A: Its inhibition is inactive: 0.37%.

Q: How did the inhibition turn out when O=P(Nc1ccccn1)(c1cccc2ccccc12)c1cccc2ccccc12 was run?
A: The inhibition was inactive: 0.53%.

Q: Which inhibition does the source give for CC1CCNP(=O)(N(CCCl)CCCl)O1 (stereo not given) here?
A: Its inhibition is inactive: 1.16%.

Q: Which inhibition does the source give for O=C(O)C(O)c1ccc(N(CCCl)CCCl)cc1 (stereo not given) here?
A: Its inhibition is inactive: 0.32%.

Q: Which inhibition does the source give for CCOC(=O)Nc1ccc([As](=O)(O)O)c(O)c1 here?
A: Its inhibition is inactive: 1.54%.

Q: CCCCOc1ccc(C(=O)NCC2(N3CCCCC3)CCCCC2)cc1OC was tested. Which inhibition did it give?
A: The inhibition was inactive: 1.78%.

Q: With Cc1cc(SC(NC(=O)c2ccccc2)C(Cl)(Cl)Cl)nc(C(C)C)n1 (stereo not given) as the compound, how does the inhibition read?
A: The inhibition was inactive: -0.01%.

Q: With COP(=O)(OC)N1CC1c1ccccc1 (stereo not given) as the compound, how does the inhibition read?
A: The inhibition was inactive: -0.27%.

Q: CCOC(=O)c1ccc(NC(=O)C(C)(CCl)SC)cc1 (stereo not given) was tested. Which inhibition did it give?
A: Its inhibition is inactive: 1.82%.

Q: How did the inhibition turn out when O=C(OC1CN2CCC1CC2)c1cccc([N+](=O)[O-])c1 (stereo not given) was run?
A: The inhibition was inactive: 1.2%.

Q: Which inhibition does the source give for CSc1ccc(Nc2c([N+](=O)[O-])cc([N+](=O)[O-])cc2[N+](=O)[O-])cc1 here?
A: The inhibition was inactive: 0.01%.

Q: With CCC(C)N(CC(C)C)C(=S)SC(NC(C)=O)C(Cl)(Cl)Cl (stereo not given) as the compound, how does the inhibition read?
A: Its inhibition is inactive: -0.21%.

Q: How did the inhibition turn out when COP1(=S)c2c(C)nn(CCC#N)c2N=C(c2ccc(F)cc2)N1C (stereo not given) was run?
A: Its inhibition is inactive: -0.21%.

Q: For O=C(COc1ccccc1)OC1CN2CCC1CC2 (stereo not given), which inhibition is on record?
A: The inhibition was inactive: -0.51%.

Q: How did the inhibition turn out when O=C(Nc1ccncc1[N+](=O)[O-])c1ccc([N+](=O)[O-])cc1[N+](=O)[O-] was run?
A: Its inhibition is inactive: -0.62%.

Q: How did the inhibition turn out when O=C(O)C(=O)c1ccc(N(CCCl)CCCl)cc1 was run?
A: Its inhibition is inactive: 0.22%.

Q: Which inhibition does the source give for COc1ccccc1CNC(=O)COC(=O)C(O)(c1ccccc1)c1ccccc1 here?
A: The inhibition was inactive: -0.9%.

Q: How did the inhibition turn out when CC1(CBr)Cn2c(nc3ccccc3c2=O)S1 (stereo not given) was run?
A: The inhibition was inactive: 2.17%.

Q: CN(C(=O)Cc1ccc(Cl)c(Cl)c1)[C@@H]1CCCC[C@H]1N1CCCC1 was tested. Which inhibition did it give?
A: Its inhibition is inactive: -0.38%.

Q: CC(C)/C=N\N=C(\N)N[N+](=O)[O-] was tested. Which inhibition did it give?
A: Its inhibition is inactive: 0.31%.

Q: For CCOP(=O)(Nc1ccc(C)cn1)OCC, which inhibition is on record?
A: The inhibition was inactive: -0.09%.

Q: Which inhibition does the source give for CCC1=CC2Cc3nc4ccc(Cl)cc4c(N)c3C(C1)C2 (stereo not given) here?
A: Its inhibition is inactive: 0.56%.

Q: With O=P1(Nc2ccccn2)COc2ccccc2OC1 as the compound, how does the inhibition read?
A: The inhibition was inactive: -0.3%.

Q: CCOP(=O)(NC(=NC(C)c1ccccc1)NC(C)c1ccccc1)OCC (stereo not given) was tested. Which inhibition did it give?
A: The inhibition was inactive: 0.26%.

Q: Clc1n[nH]nc1-c1nn[nH][15n]1 was tested. Which inhibition did it give?
A: Its inhibition is inactive: -0.62%.

Q: With O=P1(N(CCCl)CCCl)NCCC(C(F)(F)F)O1 (stereo not given) as the compound, how does the inhibition read?
A: The inhibition was inactive: -0.34%.

Q: Which inhibition does the source give for CC(C)(C)C(=O)NC(Sc1ncccn1)C(Cl)(Cl)Cl (stereo not given) here?
A: Its inhibition is inactive: 0.92%.

Q: O=P1(Nc2ncccn2)COc2ccccc2OC1 was tested. Which inhibition did it give?
A: Its inhibition is inactive: 2.04%.

Q: Which inhibition does the source give for NS(=O)(=O)c1cccc(NC(=O)COC(=O)C(O)(c2ccccc2)c2ccccc2)c1 here?
A: The inhibition was inactive: -0.2%.

Q: With O=P1(Nc2ccc(Br)cn2)COc2ccccc2OC1 as the compound, how does the inhibition read?
A: The inhibition was inactive: 0.38%.

Q: With O=[As](O)(c1cccs1)c1cccs1 as the compound, how does the inhibition read?
A: The inhibition was inactive: 0.47%.

Q: How did the inhibition turn out when Cc1ccc(OCC(=O)OC2CN3CCC2CC3)cc1 (stereo not given) was run?
A: Its inhibition is inactive: 0.96%.

Q: For Nc1cccc([As](=O)(O)c2ccccc2)c1, which inhibition is on record?
A: The inhibition was inactive: 0.39%.

Q: With Cc1nn(-c2ccccc2)c2c1P(=O)(N1CCOCC1)N(C)C(c1ccccc1)=N2 (stereo not given) as the compound, how does the inhibition read?
A: The inhibition was inactive: 0.39%.

Q: How did the inhibition turn out when Cc1ccc(C(=O)OC2CN3CCC2CC3)cc1 (stereo not given) was run?
A: The inhibition was inactive: 2.02%.

Q: For CC1CCC(C(C)C)C(OP(=O)(Nc2ccccn2)c2ccccc2)C1 (stereo not given), which inhibition is on record?
A: Its inhibition is inactive: -2.27%.

Q: How did the inhibition turn out when O=C(/C=C/c1ccccc1)OC1CN2CCC1CC2 (stereo not given) was run?
A: Its inhibition is active: 7.36%.

Q: With CCCC1OP(=O)(Nc2ccccc2)OCC1CC (stereo not given) as the compound, how does the inhibition read?
A: Its inhibition is inactive: 1.04%.

Q: CN(C)C1(CNC(=O)c2ccc(S(C)(=O)=O)cc2)CCCCC1 was tested. Which inhibition did it give?
A: Its inhibition is inactive: -0.92%.

Q: With NC(=O)Nc1ccc([As](=O)(O)O)cc1 as the compound, how does the inhibition read?
A: The inhibition was inactive: 0.49%.

Q: With CN(C)C(=O)c1cc([N+](=O)[O-])cc2c1-c1c(cc([N+](=O)[O-])cc1[N+](=O)[O-])C2=O as the compound, how does the inhibition read?
A: The inhibition was inactive: -6.37%.

Q: Which inhibition does the source give for O=[N+]([O-])c1ccc2c(c1)nnn2O here?
A: The inhibition was inactive: -0.47%.

Q: CN(C(=O)Cc1ccc(Cl)c(Cl)c1)[C@H]1CC[C@@]2(CCCO2)C[C@@H]1N1CCCC1 was tested. Which inhibition did it give?
A: The inhibition was inactive: 0.21%.

Q: N#CCCN(C(=O)COC(=O)C(O)(c1ccccc1)c1ccccc1)c1ccc(F)cc1 was tested. Which inhibition did it give?
A: Its inhibition is inactive: -0.31%.

Q: With CN(C(=O)Cc1ccccc1)[C@@H]1CC[C@]2(CCCO2)C[C@H]1N1CCCC1 as the compound, how does the inhibition read?
A: The inhibition was inactive: 0.02%.

Q: CCOP1(=S)c2c(C)nn(CCC#N)c2N=C(c2ccc(F)cc2)N1C (stereo not given) was tested. Which inhibition did it give?
A: Its inhibition is inactive: -0.4%.

Q: With CS(=O)(=O)c1cc([N+](=O)[O-])c2no[n+]([O-])c2c1 as the compound, how does the inhibition read?
A: The inhibition was inactive: 0.28%.

Q: How did the inhibition turn out when CCOP1(=S)c2c(C)nn(CCC#N)c2N=C(c2ccccc2F)N1C (stereo not given) was run?
A: Its inhibition is inactive: -0.17%.

Q: Which inhibition does the source give for O=P(Nc1nccs1)(c1ccccc1)c1nc2ccccc2s1 (stereo not given) here?
A: The inhibition was inactive: -2.04%.

Q: For O=P(Nc1nccs1)(Oc1ccccc1)Oc1ccccc1, which inhibition is on record?
A: Its inhibition is inactive: -0.12%.

Q: How did the inhibition turn out when O=C(O)COc1ccc([As](=O)(O)O)cc1[N+](=O)[O-] was run?
A: The inhibition was inactive: 0.92%.

Q: Which inhibition does the source give for Nc1ccccc1[As](=O)(O)c1ccccc1 here?
A: The inhibition was inactive: -1.68%.

Q: For CCCOP(=S)(Nc1nc(N)cc(=O)[nH]1)OCCC, which inhibition is on record?
A: The inhibition was inactive: 0.71%.

Q: Nc1cccc2c([As](=O)(O)O)cccc12 was tested. Which inhibition did it give?
A: The inhibition was inactive: 0.91%.

Q: For Cc1ccc(NCCc2c([N+](=O)[O-])cc([N+](=O)[O-])cc2[N+](=O)[O-])cc1, which inhibition is on record?
A: The inhibition was inactive: -0.54%.

Q: COc1cc(C2NCCC3(OCCO3)C2(C)C)cc(OC)c1OC (stereo not given) was tested. Which inhibition did it give?
A: The inhibition was inactive: 0.08%.

Q: Which inhibition does the source give for CCOP(=O)(Nc1cccc2ccccc12)OCC here?
A: Its inhibition is inactive: -0.98%.

Q: Which inhibition does the source give for COc1cc(C(=O)NCC2(N3CCOCC3)CCCCC2)cc(Cl)c1OC(C)C here?
A: Its inhibition is inactive: 0.74%.

Q: With O=[As](O)(O)c1cccnc1 as the compound, how does the inhibition read?
A: The inhibition was inactive: 1.7%.

Q: Which inhibition does the source give for CS(=O)(=O)c1ccc(Cl)c(NC(=O)COC(=O)C(O)(c2ccccc2)c2ccccc2)c1 here?
A: Its inhibition is inactive: -0.54%.

Q: O=C(OC1CN2CCC1CC2)c1ccc(Cl)cc1 (stereo not given) was tested. Which inhibition did it give?
A: The inhibition was inactive: 1%.

Q: O=[As](O)(c1cccc(O)c1)c1cccc(O)c1 was tested. Which inhibition did it give?
A: The inhibition was inactive: 1.22%.

Q: For Cc1cccc(OCC(=O)OC2CN3CCC2CC3)c1 (stereo not given), which inhibition is on record?
A: Its inhibition is inactive: -0.55%.
